Earlier results as cited in publication PMC5831161, “Crystal structure correlations with the intrinsic thermodynamics of human carbonic anhydrase inhibitor binding” (PeerJ, 2018).

Sequences of proteins named here, by UniProt entry; tags and fusion partners are left off. A change or cut given only in a name is not applied to a line headed by its entry. Residues count along the entry.
UniProt Q8N1Q1: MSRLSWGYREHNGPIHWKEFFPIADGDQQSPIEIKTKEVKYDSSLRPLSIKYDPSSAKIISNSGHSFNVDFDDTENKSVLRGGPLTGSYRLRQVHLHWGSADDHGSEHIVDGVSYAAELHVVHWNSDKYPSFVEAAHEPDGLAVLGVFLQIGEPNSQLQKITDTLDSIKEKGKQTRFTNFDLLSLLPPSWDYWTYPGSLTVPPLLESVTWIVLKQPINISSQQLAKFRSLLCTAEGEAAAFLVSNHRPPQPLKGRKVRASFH
UniProt O43570, 30-291 limits assumed: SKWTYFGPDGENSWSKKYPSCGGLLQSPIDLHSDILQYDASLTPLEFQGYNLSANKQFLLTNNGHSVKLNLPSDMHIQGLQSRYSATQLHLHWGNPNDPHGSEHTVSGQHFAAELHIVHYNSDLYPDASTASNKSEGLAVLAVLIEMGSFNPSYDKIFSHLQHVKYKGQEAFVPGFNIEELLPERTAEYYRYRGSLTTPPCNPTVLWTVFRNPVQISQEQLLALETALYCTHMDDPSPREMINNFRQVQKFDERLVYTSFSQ

Assays:
[1] = target: T1, CA XIII (Homo sapiens, UniProt Q8N1Q1); conditions: ref Kišonaitė et al. (2014), Zubrienė et al. (2015), Zubrienė et al. (2016), cited from earlier work
[2] = target: T2, CA XII (Homo sapiens, UniProt O43570); design: made in house; conditions: intrinsic Gibbs energy of binding, ref Kišonaitė et al. (2014), Zubrienė et al. (2015), Zubrienė et al. (2016); cited from earlier work
[3] = target: T1, CA XIII; design: made in house; conditions: intrinsic Gibbs energy of binding, ref Kišonaitė et al. (2014), Zubrienė et al. (2015), Zubrienė et al. (2016); cited from earlier work
[4] = target: T2, CA XII; design: made in house; conditions: ref Kišonaitė et al. (2014), Zubrienė et al. (2015), Zubrienė et al. (2016), cited from earlier work

NS(=O)(=O)c1c(F)c(F)c(S(=O)(=O)CCO)c(F)c1F [Compound 10]
ΔH ([1]; intrinsic enthalpy of binding): -12 kcal/mol | −TΔS ([1]; intrinsic entropy term): 0.645 kcal/mol | ΔG [2]: -10.6 kcal/mol | ΔG [3]: -11.4 kcal/mol | ΔH ([4]; intrinsic enthalpy of binding): -5.88 kcal/mol | −TΔS ([4]; intrinsic entropy term): -4.71 kcal/mol
